Measurements taken from patent US10196373B2, “Substituted 2-hydroxy-4-(2-(phenylsulfonamido)acetamido)benzoic acid analogs as inhibitors of STAT protein” (University of Central Florida Research Foundation, Inc., priority 2010, dated 2019).

Columns and labels:
OCI-AMI.2 cells = test: Cell viability, MTS assay; assay type: cell-based
HL60 cells = test: Cell viability, MTS assay; assay type: cell-based; settings: Homo sapiens, HL-60, HL60, 72 hours
Method: To further test activity of these molecules, a whole-cell study involving cancer lines with known abherrant STAT3 expression was conducted. These human cell lines, including prostate cancer (DU145), breast cancer (MDA468), and promyelocytic leukemia (HL-60) were treated with the peptidomimetics and incubated for 72 hours. Disruption of cell viability was measured by MTS assay and IC50 values for the potential inhibitors was determined. OriginPro 8 (Northampton, Mass.) was used to evaluate EC50 using the dose response curve defined as follows:
[formula] where y is the fraction of death, x is the log of drug concentration. A2 is the top asymptote, A1 is the bottom asymptote, logx0 is the center of the curve, and p is the hill slope.

CN(CC(=O)N(Cc1ccc(C2CCCCC2)cc1)c1ccc(C(=O)O)c(O)c1)S(=O)(=O)c1c(F)c(F)c(F)c(F)c1F [Compound 45O, 4-(N-(4-cyclohexylbenzyl)-2-(2,3,4,5,6-pentafluoro-N-methylphenylsulfonamido)acetamido)-2-hydroxybenzoic acid] was tested, and the IC50 (OCI-AMI.2 cells) was 10.5 ± 6.2 µM and the IC50 (HL60 cells) was 10.4 ± 1.6 µM.
